Laboratory results taken from BindingDB's records for US9096606.

By UniProt entry, the sequences of proteins in these tests, tags left out.
UniProt P41145, whole entry: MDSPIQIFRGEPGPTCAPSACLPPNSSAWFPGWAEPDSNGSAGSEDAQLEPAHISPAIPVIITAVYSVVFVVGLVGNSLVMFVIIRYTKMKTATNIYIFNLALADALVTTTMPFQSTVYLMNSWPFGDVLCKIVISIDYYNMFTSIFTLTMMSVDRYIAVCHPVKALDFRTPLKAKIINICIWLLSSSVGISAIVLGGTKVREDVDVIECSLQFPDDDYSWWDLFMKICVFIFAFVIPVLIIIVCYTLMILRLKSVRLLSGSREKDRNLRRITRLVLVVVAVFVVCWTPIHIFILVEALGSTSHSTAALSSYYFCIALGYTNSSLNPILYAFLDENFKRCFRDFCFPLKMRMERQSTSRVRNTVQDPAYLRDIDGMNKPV
UniProt P35372, whole entry: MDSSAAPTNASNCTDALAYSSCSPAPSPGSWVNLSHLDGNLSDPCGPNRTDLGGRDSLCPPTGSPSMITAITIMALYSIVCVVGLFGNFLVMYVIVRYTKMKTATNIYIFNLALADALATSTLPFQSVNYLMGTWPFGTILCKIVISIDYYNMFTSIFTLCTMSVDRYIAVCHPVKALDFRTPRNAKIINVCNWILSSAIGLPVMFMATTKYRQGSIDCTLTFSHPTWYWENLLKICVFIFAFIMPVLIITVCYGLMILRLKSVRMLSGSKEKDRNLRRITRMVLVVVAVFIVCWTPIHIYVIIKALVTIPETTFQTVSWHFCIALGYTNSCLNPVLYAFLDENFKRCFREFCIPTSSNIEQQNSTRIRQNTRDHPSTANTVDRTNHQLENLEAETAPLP
UniProt P41143, whole entry: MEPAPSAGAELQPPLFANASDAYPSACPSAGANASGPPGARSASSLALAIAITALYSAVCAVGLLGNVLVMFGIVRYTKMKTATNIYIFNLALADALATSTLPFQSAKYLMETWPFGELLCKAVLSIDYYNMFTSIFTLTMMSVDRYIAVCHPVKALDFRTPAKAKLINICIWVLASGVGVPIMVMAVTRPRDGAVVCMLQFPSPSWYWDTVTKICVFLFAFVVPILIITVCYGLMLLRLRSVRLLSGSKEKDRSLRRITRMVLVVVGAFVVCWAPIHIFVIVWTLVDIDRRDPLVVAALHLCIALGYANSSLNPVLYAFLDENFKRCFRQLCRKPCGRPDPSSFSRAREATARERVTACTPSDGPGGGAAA

Experiments:
Assay in all cases: Radioligand Dose-Displacement Binding Assay
Conditions in all cases: pH 7.4
[1] = biological target: Kappa-type opioid receptor (Homo sapiens, UniProt P41145)
Mu-type opioid receptor = Mu-type opioid receptor (Homo sapiens, UniProt P35372)
[2] = biological target: Delta-type opioid receptor (Homo sapiens, UniProt P41143)

## CO[C@]12CC[C@@]3(C[C@@H]1COCc1cccc(F)c1)[C@H]1Cc4ccc(O)c5c4[C@@]3(CC[N+]1(C)CC1CC1)[C@H]2O5 (some centres undefined)
[1]
  Ki: 0.25 nM

## CO[C@]12CC[C@@]3(C[C@@H]1COCc1ccccc1)[C@H]1Cc4ccc(O)c5c4[C@@]3(CC[N+]1(C)CC1CC1)[C@H]2O5 (some centres undefined)
[1]
  Ki: 0.55 nM
Mu-type opioid receptor
  Ki: 2.11 nM

## CO[C@]12CC[C@@]3(C[C@@H]1COCc1ccccc1F)[C@H]1Cc4ccc(O)c5c4[C@@]3(CC[N+]1(C)CC1CC1)[C@H]2O5 (some centres undefined)
Mu-type opioid receptor
  Ki: 4.51 nM

## CO[C@]12CC[C@@]3(C[C@@H]1COCc1cc4ccccc4s1)[C@H]1Cc4ccc(O)c5c4[C@@]3(CC[N+]1(C)CC1CC1)[C@H]2O5 (some centres undefined)
[1]
  Ki: 0.78 nM
Mu-type opioid receptor
  Ki: 2.29 nM
[2]
  Ki: 45.3 nM

## CO[C@]12CC[C@@]3(C[C@@H]1COCc1cccc(C)c1)[C@H]1Cc4ccc(O)c5c4[C@@]3(CC[N+]1(C)CC1CC1)[C@H]2O5 (some centres undefined)
[1]
  Ki: 0.29 nM
Mu-type opioid receptor
  Ki: 4.3 nM

## CO[C@]12CC[C@@]3(C[C@@H]1COCc1ccc(C)cc1)[C@H]1Cc4ccc(O)c5c4[C@@]3(CC[N+]1(C)CC1CC1)[C@H]2O5 (some centres undefined)
[1]
  Ki: 1.06 nM
Mu-type opioid receptor
  Ki: 1.36 nM

## CO[C@]12CC[C@@]3(C[C@@H]1COCc1ccc(F)cc1)[C@H]1Cc4ccc(O)c5c4[C@@]3(CC[N+]1(C)CC1CC1)[C@H]2O5 (some centres undefined)
[1]
  Ki: 0.26 nM
Mu-type opioid receptor
  Ki: 9.55 nM

## CO[C@]12CC[C@@]3(C[C@@H]1COCc1cccc(Cl)c1)[C@H]1Cc4ccc(O)c5c4[C@@]3(CC[N+]1(C)CC1CC1)[C@H]2O5 (some centres undefined)
[1]
  Ki: 0.27 nM
